The entries are a selection whose mix differs from that of the whole data set. Records with an inconclusive call do not appear. Activity calls are given as the source filed them. Calls follow the shape of the dose curve; as a rule, active = well fitted curve in the direction sought with a large enough effect in the polarisation (not every such curve was filed as active); inconclusive = small, poorly fitted or top-dose-only effect, or effect the other way, or a change in a side signal; inactive = no such curve, though single readings can be large or run the other way; the % refers to the polarisation.
Experiment: qHTS Assay for Inhibitors Targeting the Menin-MLL Interaction in MLL Related Leukemias: Competition With Fluorescein Labeled MLL-derived Peptide; also: % of control where 0% means no effect
Conditions: Fluorescence polarization, fluorescein-MLL peptide displacement from menin; at 61.4 µM (top of the series) unless noted

| Structure (SMILES) | FP activity change |
| --- | --- |
| CC(C)(C)c1ccc(OP(C)(=O)O)cc1 | inactive: 2.55% |
| Nc1ccc([As](=O)(O)c2ccc(N)cc2)cc1 | inactive: -1.39% |
| COc1ccccc1OP(C)(=O)Nc1ccccc1Br (configuration not stated) | inactive: 0.144% |
| CP(=O)(Nc1ccc(Cl)cc1)Oc1ccc(F)cc1 (configuration not stated) | inactive: 6.37% |
| CCN(/C(=N/P(=O)(N1CCOCC1)N1CCOCC1)N1CCOCC1)c1ccc(OC)cc1 | inactive: -4.65% |
| OCCSCCO | inactive: -1.28% |
| O=C(OCCCN1CCCC1)C(O)(c1ccccc1)C1CCCCC1 (configuration not stated) | inactive: -1.07% |
| COc1ccccc1OP(C)(=O)Nc1c(C)n(C)n(-c2ccccc2)c1=O (configuration not stated) | inactive: 3.81% |
| O=[N+]([O-])c1cccc2n[nH]nc12 | inactive: 3.36% |
| CC(=O)N1C2C3N(C(C)=O)C1C1N(C(C)=O)C(C(N1C(C)=O)N3C(C)=O)N2C(C)=O | inactive: 1.44% |
| CCc1nc2c(n1)c1c(non1O)c1c2no[n+]1[O-] | inactive: 1.07% |
| O=[N+]([O-])c1cc([N+](=O)[O-])c(CCNc2ccccc2)c([N+](=O)[O-])c1 | inactive: 0.94% |
| CCc1ccc(OP(C)(=O)Nc2cccnc2)cc1 (configuration not stated) | inactive: 0.557% |
| CP(=O)(Oc1ccccc1)N1CCOC1=O (configuration not stated) | inactive: -1.93% |
| Cc1ccc(NP(=O)(Oc2ccccc2)Oc2ccccc2)nc1 | inactive: -0.846% |
| COc1ccc(OP(C)(=O)Nc2ccc(Br)cc2)cc1 (configuration not stated) | inactive: 3.56% |
| COc1ccc(C2=NCC(CBr)S2)cc1 (configuration not stated) | inactive: -7.01% |
| CCN(CC)CC(O)COC(=O)C(O)(c1ccccc1)C1CCCCC1 (configuration not stated) | inactive: 0.778% |
| O=[N+]([O-])c1cccc(NC2=NCC(CBr)S2)c1 (configuration not stated) | inactive: 5.27% |
| CC(C)OP(=O)(F)OC(C)C | inactive: 3.01% |
| C/C1=C2N=C(/C=C3N=C(/C(C)=C4\[N-][C@@](C)([C@H]5N=C1[C@@](C)(CCC(=O)NC[C@H](C)OP(=O)([O-])O[C@@H]1[C@H](O)[C@H](n6cnc7cc(C)c(C)cc76)O[C@@H]1CO)[C@@H]5CC(N)=O)[C@](C)(CC(N)=O)[C@H]4CCC(N)=O)[C@@](C)(CC(N)=O)[C@@H]\3CCC(N)=O)C(C)(C)[C@@H]/2CCC(N)=O.[C-]#N.[Co+3] | inactive: -0.906% [at 24.8 µM] |
| O=C(O)CNc1ccc([As](=O)(O)O)cc1 | inactive: 7.22% |
| CC(C)(C)C(=O)NC(Sc1ccncn1)C(Cl)(Cl)Cl (configuration not stated) | inactive: -0.247% |
| O=[N+]([O-])c1ncn(CCn2ncnc2[N+](=O)[O-])n1 | inactive: 2.34% |
| O=C(Nc1cc([As](=O)(O)O)ccc1O)c1ccccc1 | inactive: -10.3% |
| CCOC(=O)c1ccc(NP(C)(=O)Oc2ccc(Cl)cc2)cc1 (configuration not stated) | inactive: 0.201% |
| CP(=O)(OC12CC3CC(CC(C3)C1)C2)OC12CC3CC(CC(C3)C1)C2 | inactive: 3.24% |

— PubChem BioAssay AID1766 (National Center for Advancing Translational Sciences (NCATS), 2009)
